Molecular target: Protein farnesyltransferase (Homo sapiens, UniProt P49354+P49356)
Assay: FPT inhibitory activity was determined by the ability to inhibit the transfer of [3H]farnesyl from farnesyl pyrophosphate to H-ras-CLVS
Assay type: protein-complex assay

| IC50 | SMILES |
| --- | --- |
| 43 nM | N#CN=C(Nc1cccnc1)N1CCC(=C2c3ccc(Cl)cc3CCc3cc(Br)cnc32)CC1 |
| 43 nM | COc1ccc(N/C(=N\C#N)N2CCC(=C3c4ccc(Cl)cc4CCc4cc(Br)cnc43)CC2)cc1 |
